The record followed here is ChEMBL document CHEMBL1131780 (Bioorg Med Chem Lett, 1999).

Amino acid sequences for entries named in this document (tags omitted). A change or cut given only in a name is not applied to a line headed by its entry.
UniProt P11229: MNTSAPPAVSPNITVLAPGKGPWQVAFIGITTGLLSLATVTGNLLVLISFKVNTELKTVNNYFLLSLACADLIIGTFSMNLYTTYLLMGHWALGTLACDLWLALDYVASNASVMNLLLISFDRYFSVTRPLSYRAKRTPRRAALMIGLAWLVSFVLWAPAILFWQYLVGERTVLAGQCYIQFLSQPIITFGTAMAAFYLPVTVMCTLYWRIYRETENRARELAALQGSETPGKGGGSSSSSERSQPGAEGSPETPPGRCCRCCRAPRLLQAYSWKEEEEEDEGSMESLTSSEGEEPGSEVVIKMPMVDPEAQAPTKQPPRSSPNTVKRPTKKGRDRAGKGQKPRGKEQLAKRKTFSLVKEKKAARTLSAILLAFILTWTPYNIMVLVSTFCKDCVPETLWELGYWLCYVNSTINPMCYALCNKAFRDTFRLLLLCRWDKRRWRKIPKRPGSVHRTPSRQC

The target in this assay is Muscarinic acetylcholine receptor M1 (Homo sapiens, UniProt P11229). Description: Efficacy expressed as PI (percentage of carbachol) against human M1 receptor expressed in CHO cells. The assay is classed as functional, cell-based.

`CCCCCCOc1nccnc1O[C@@H]1CN2CCC1C2` (stereo in doubt; 6) registered a PI of 75%.
